Sequences of proteins named here, by UniProt entry; tags and fusion partners are left off. Residues count along the entry.
UniProt P03372, 281-549 G400V: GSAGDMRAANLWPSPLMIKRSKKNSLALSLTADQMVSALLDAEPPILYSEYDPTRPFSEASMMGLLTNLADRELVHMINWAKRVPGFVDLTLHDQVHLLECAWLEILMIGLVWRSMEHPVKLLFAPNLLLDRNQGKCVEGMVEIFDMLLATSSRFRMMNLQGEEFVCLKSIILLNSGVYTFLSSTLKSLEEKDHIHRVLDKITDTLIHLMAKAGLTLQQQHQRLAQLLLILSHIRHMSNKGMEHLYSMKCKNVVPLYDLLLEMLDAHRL

According to patent US8178654B2, “Estrogen receptor intramolecular folding systems, estrogen receptor intramolecular folding sensors, methods of use thereof, methods of detecting ER ligands, and methods of detecting ER agonists and antagonists” (Stanford University, priority 2006, dated 2012):

Biological target: hER281-549 (human estrogen receptor alpha ligand binding domain amino acids 281-549) (Homo sapiens, UniProt P03372, G400V)
Experiment: Ligand-induced intramolecular folding split RLUC complementation, N-RLUC-hER281-549-C-RLUC in transfected cells
Details: 1 μM ligand, 18 hours

C[C@]12CC[C@@H]3c4ccc(O)cc4C[C@@H](CCCCCCCCC[S+]([O-])CCCC(F)(F)C(F)(F)F)[C@H]3[C@@H]1CC[C@@H]2O (stereo partly shown) [ICI182,780]
ligand-induced RLUC complementation signal (in words): not similar to either antagonists or agonists
